Measured values from publication PMC10402266, “Reaction hijacking inhibition of Plasmodium falciparum asparagine tRNA synthetase” (Research Square, 2023).

Target: T1, HsAsnRS (human asparaginyl tRNA synthetase) (Homo sapiens, UniProt O43776)
T1 construct: gene NARS1; recombinant full-length HsAsnRS
T1 sequence (O43776 1-548): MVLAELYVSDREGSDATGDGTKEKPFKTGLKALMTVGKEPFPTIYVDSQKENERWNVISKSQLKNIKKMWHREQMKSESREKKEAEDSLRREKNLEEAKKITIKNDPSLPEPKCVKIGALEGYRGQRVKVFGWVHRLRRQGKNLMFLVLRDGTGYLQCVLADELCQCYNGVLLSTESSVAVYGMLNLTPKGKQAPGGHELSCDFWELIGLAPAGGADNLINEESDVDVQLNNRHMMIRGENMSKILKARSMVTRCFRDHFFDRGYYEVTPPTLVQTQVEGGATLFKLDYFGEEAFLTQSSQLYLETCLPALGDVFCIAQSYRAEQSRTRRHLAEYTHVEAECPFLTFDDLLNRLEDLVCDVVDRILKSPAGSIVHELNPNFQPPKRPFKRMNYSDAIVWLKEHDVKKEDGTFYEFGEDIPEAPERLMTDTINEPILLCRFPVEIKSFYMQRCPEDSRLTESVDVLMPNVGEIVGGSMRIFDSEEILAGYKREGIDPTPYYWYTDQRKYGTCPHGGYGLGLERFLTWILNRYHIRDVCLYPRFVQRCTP
Experiment: ATP consumption assay of recombinant enzyme
Format: biochemical

Nc1ncnc2c1ncn2[C@@H]1O[C@H](COS(N)(=O)=O)[C@@H](O)[C@H]1O [AMS, adenosine 5’-sulfamate]
IC50: 25 µM
